The list shows a part of the results, in another mix than the full data. Active and inactive are the calls of the source. Rule as the data show it: active = inhibition above about 22%; inactive = the rest.
Experiment: IEC-6 cell viability reduction – luminescence, cytotoxicity control for KLF5 inhibitor project, primary screen (AID 1825);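 also: 0% = plate median of test compound wells and 100% = cytotoxic reference compound wells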
Settings: IEC-6 cytotoxicity, at 5 µM, hits give high values

Row | Compound | inhibition
1 | CP(=O)(Oc1ccccc1)N1CCOC1=O (configuration not stated) | inactive: 2.3%
2 | COc1ccccc1OP(C)(=O)Nc1ccccc1Br (configuration not stated) | inactive: 3.8%
3 | CC(C)(C)c1ccc(OP(C)(=O)O)cc1 | inactive: -3%
4 | CP(=O)(Nc1ccc(Cl)cc1)Oc1ccc(F)cc1 (configuration not stated) | inactive: 3.1%
5 | CN(C)C(=O)c1c([N+](=O)[O-])cc([N+](=O)[O-])cc1[N+](=O)[O-] | inactive: -6.3%
6 | COc1ccccc1OP(C)(=O)Nc1ccc(Br)cc1 (configuration not stated) | inactive: -0.8%
7 | COc1ccc(OP(C)(=O)Nc2ccccn2)cc1 (configuration not stated) | inactive: 0.4%
8 | CN(C)CCOC(=O)C(O)(c1ccccc1)C1CCCC1 (configuration not stated) | inactive: -0.7%
9 | Cc1c(NP(C)(=O)Oc2ccc(C(C)C)cc2)c(=O)n(-c2ccccc2)n1C (configuration not stated) | inactive: 1.7%
10 | O=[N+]([O-])c1cc([N+](=O)[O-])c(Nc2ccccn2)c([N+](=O)[O-])c1 | inactive: -13.2%
11 | COc1ccccc1OP(C)(=O)Nc1ccc(C)cc1C (configuration not stated) | inactive: 5.4%
12 | CP(=O)(Nc1ccccn1)Oc1ccccc1 (configuration not stated) | inactive: -11.4%
13 | CCc1ccc(OP(C)(=O)O)cc1 | inactive: -6.7%
14 | Cc1cc(C)cc(OP(C)(=O)Nc2cccc(C(F)(F)F)c2)c1 (configuration not stated) | inactive: 2.1%
15 | COc1ccccc1OP(C)(=O)Nc1ccc(C)c(C)c1 (configuration not stated) | inactive: -7.2%
16 | COc1ccc(OP(C)(=O)Nc2ccccc2Br)cc1 (configuration not stated) | inactive: -8.8%
17 | Cc1nc2ccc3ccccc3c2o1.O=[N+]([O-])c1cc([N+](=O)[O-])c(O)c([N+](=O)[O-])c1 | inactive: 1.1%
18 | CP(=O)(Nc1ccc(Cl)cc1Cl)Oc1ccccc1 (configuration not stated) | inactive: -4.4%
19 | CP(=O)(OCCOc1ccccc1)OCCOc1ccccc1 | inactive: -1.7%

Row | Compound | inhibition
20 | O=[N+]([O-])c1ccc2c(c1)C=Nc1ccccc1O2 | inactive: 0%
21 | Cc1cccc(C)c1OP(C)(N)=O (configuration not stated) | inactive: 2%
22 | CC(C)(C)c1ccc(OP(C)(=O)Nc2ccc(SC(F)(F)F)cc2)cc1 (configuration not stated) | inactive: -3.5%
23 | Cc1ccc(NP(C)(=O)Oc2ccccc2)c(C)c1 (configuration not stated) | inactive: 0.3%
24 | COc1ccccc1OP(C)(=O)Nc1ccc(C)cc1 (configuration not stated) | inactive: 0.5%
25 | CCOC(=O)c1ccc(NP(C)(=O)Oc2ccccc2)cc1 (configuration not stated) | inactive: -1.1%
26 | Cc1cc(C)cc(OP(C)(N)=O)c1 (configuration not stated) | inactive: -2%
27 | COc1ccc(OP(C)(=O)Nc2cccc(F)c2)cc1 (configuration not stated) | inactive: -3%
28 | COc1ccccc1OP(C)(=O)Nc1cc(Cl)ccc1C (configuration not stated) | inactive: 13.8%
29 | CCN(CC)CCCOC(=O)C(O)(c1ccccc1)c1ccccc1 | inactive: -6.2%
30 | CP(=O)(Oc1ccccc1)OC(c1ccccc1)C(F)(F)F (configuration not stated) | inactive: 2.8%
31 | Cc1cccc(C)c1OP(C)(=O)Nc1ccc(SC(F)(F)F)cc1 (configuration not stated) | inactive: 4.1%
32 | CP(=O)(Nc1ccc(SC(F)(F)F)cc1)Oc1ccc(Cl)cc1 (configuration not stated) | inactive: -2.1%
33 | Cc1cc(C)cc(OP(C)(=O)Nc2ccc(SC(F)(F)F)cc2)c1 (configuration not stated) | inactive: 6.3%
34 | CP(=O)(NC(=O)Nc1ccccc1)Oc1ccccc1 (configuration not stated) | inactive: 1.4%
35 | CCc1ccc(OP(C)(=O)N2CCN(c3ccc([N+](=O)[O-])cc3)CC2)cc1 (configuration not stated) | inactive: 6.4%
36 | CCOC(=O)c1ccc(NP(C)(=O)Oc2ccc(OC)cc2)cc1 (configuration not stated) | inactive: 0.7%
37 | CCOP(C)(=S)SCC(=O)NC(C)C(=O)O (configuration not stated) | inactive: 6.5%
38 | CP(=O)(Nc1ccccn1)Oc1ccc(Cl)cc1 (configuration not stated) | inactive: 2.4%

Row | Compound | inhibition
39 | CP(=S)(Nn1cnnc1)Oc1ccccc1 (configuration not stated) | inactive: 11.5%
40 | CP(=O)(Nc1ccccc1Br)Oc1ccccc1 (configuration not stated) | inactive: 0.5%
41 | COc1ccccc1OP(C)(=O)Nc1ccccc1 (configuration not stated) | inactive: -9.3%
42 | CCOC(=O)C(CC)C1=NC(C)(C)Cc2ccccc21.O=[N+]([O-])c1cc([N+](=O)[O-])c(O)c([N+](=O)[O-])c1 (configuration not stated) | inactive: 3.7%
43 | O=[N+]([O-])c1cc([N+](=O)[O-])c(Nc2nnnn2CCO)c([N+](=O)[O-])c1 | inactive: -3.1%
44 | COc1ccccc1OP(C)(=O)Nc1c(C)cccc1C (configuration not stated) | inactive: 3.9%
45 | CN1CCCCC1COC(=O)C1(O)c2ccccc2CCc2ccccc21 (configuration not stated) | inactive: -0.9%
46 | CCCOc1ccc(NP(C)(=O)Oc2ccc(Cl)cc2)cc1 (configuration not stated) | inactive: 3.5%
47 | CP(=O)(Nc1ccc(SC(F)(F)F)cc1)Oc1ccccc1 (configuration not stated) | inactive: -7.3%
48 | O=[N+]([O-])c1cc([N+](=O)[O-])c(-n2nnc3ccccc32)c([N+](=O)[O-])c1 | inactive: -1%
49 | Cc1nc2ccc3ccccc3c2s1.O=[N+]([O-])c1cc([N+](=O)[O-])c(O)c([N+](=O)[O-])c1 | inactive: -0.7%
50 | COc1ccccc1OP(C)(=O)Nc1cccc(Br)c1 (configuration not stated) | inactive: -0.1%
51 | CCOC(=O)c1ccc(NP(C)(=O)Oc2cc(C)cc(C)c2)cc1 (configuration not stated) | inactive: 8.7%
52 | Cc1cc(C)cc(OP(C)(=O)Nc2ccc(C)cc2C)c1 (configuration not stated) | inactive: 0.4%
53 | Cc1ccc(C)c(NP(C)(=O)Oc2ccccc2)c1 (configuration not stated) | inactive: -1.9%
54 | Cc1cc(C)cc(OP(C)(=O)Nc2ccccn2)c1 (configuration not stated) | inactive: -3.9%
55 | CP(=O)(Nc1cccc(Br)c1)Oc1ccccc1 (configuration not stated) | inactive: -1.8%
56 | O=C(O)c1cccc(Nc2c([N+](=O)[O-])cc([N+](=O)[O-])cc2[N+](=O)[O-])c1 | inactive: -12.4%
57 | CC1=NCCc2c1[nH]c1ccccc21.O=[N+]([O-])c1cc([N+](=O)[O-])c(O)c([N+](=O)[O-])c1 | inactive: 6.8%

Reference: PubChem BioAssay AID1825 (The Scripps Research Institute Molecular Screening Center, 2009)
